# Screens from PubChem BioAssay.
# esBAF inh: blocks esBAF chromatin remodeling in mouse ES cells | Bmi1-luciferase knock-in reporter, 24 h; 100% = twice the neutral-well signal | reporter increase, % at 12.5 µM | hit rate 2% among 350,000 | AID 602393; in the data active means activation above about 40%; inconclusive means no clear call, values can overlap the other calls;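 further: 0% = median of the plate's neutral control wells and 100% = double that signal; a rise in the Bmi1 reporter signal indicates esBAF inhibition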
# MITF TRPM1 HTS: MITF TRPM1 promoter activation in melanoma cells | hit rate 0.75% among 300,000 | activation, % at 12.5 µM | SK-MEL-5 TRPM1-promoter luciferase, 24 h; % of positive control, neutral wells = 0 | AID 588334;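 active means mean activation of at least 80% with every replicate also reaching 80%; inconclusive means mean reaches 80% but some replicate falls short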;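 further: 0% = neutral control wells and 100% = parthenolide positive control wells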
# Wnt act: Wnt/beta-catenin pathway activation; Wnt/beta-catenin reporter cell assay, activator, plate reader; activation, % at 9.35 µM; hit rate 1.2% among 300,000; AID 743398; in the data active means activation above about 30%, passing the limit was not always enough; inconclusive means no clear call, values can overlap the other calls;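 further: 0% = neutral control wells and 100% = positive control wells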
# miR122 inh: inhibitors of miR-122 in Huh7 cells. activation (reporter increase), % at 12.5 µM. Huh7 miR-122 Renilla luciferase sensor, 48 h; neutral wells = 0, positive control = 100. hit rate 0.3% among 340,000;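 active means mean replicate activation score at least 90 and every replicate individually at or above 90; inconclusive means only one of the two criteria met; inactive means neither criterion met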;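 further: higher luciferase means less miR-122 activity so hits act as miR-122 inhibitors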
# PglD inh: inhibitors of Campylobacter jejuni PglD acetyltransferase | inhibition, % at 12.5 µM | AID 602405 | hit rate 0.098% among 360,000 | purified PglD enzyme, DTNB colorimetric CoA detection; in the data active means inhibition above about 16%, passing the limit was not always enough; inconclusive means no clear call, values can overlap the other calls
# UUG fidelity: modulators of start codon recognition fidelity in yeast. S. cerevisiae UUG-firefly luciferase reporter, luminescence/redox ratio. activity score, % at 18.7 µM. 350,000 tested, 0.13% active;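 active = replicate mean at a twofold rise or more, about +100% in these data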;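 note: firefly luciferase made from a UUG start codon reports start codon fidelity; reporter light over untreated wells divided by growth signal over untreated wells; some hits fall short of that in this replicate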
# * marks the source's active call; other numbers are inactive results; ? = inconclusive; . = no result given; [ ] = dose if it differs, or a comment. Shown are actives, neighbours in structure and some others; about 2.8% of the full set was active somewhere.
# Each structure is followed by: esBAF inh | MITF TRPM1 HTS | Wnt act | miR122 inh | PglD inh | UUG fidelity
> CCc1nnc(NC(=O)c2sc3nc4c(cc3c2N)CCCCC4)s1
→ . | 61 | ? | . | . | .
> Nc1c(C(=O)N2CCCCC2)sc2nc3c(cc12)CCCC3
→ 54* | 80 | -2 | 6 | -3 | 28
> CNC[C@H]1Oc2ccc(NC(=O)C3CC3)cc2C(=O)N([C@@H](C)CO)C[C@H]1C
→ -5 | . | . | -5[16.7 µM] | 1 | -31
> Cc1ccc(-c2cn(-c3ccccc3F)c(=S)[nH]2)cc1
→ 47* | 53 | 13 | -6 | -5 | -23
> Cc1ccc(-n2nnc(-c3ccnc4ccccc34)n2)cc1
→ 69* | 94* | 40* | -5 | 1 | -15
> Cn1c(-c2ccccc2)cc2ccccc21
→ 16 | 23 | 3 | -2 | -1 | -9
> COc1ncccc1-c1nnn(-c2ccc(Cl)nc2)n1
→ 19 | 70 | 11 | . | 7 | -19
> Cc1ccc(-n2nnc(-c3cc4ccccc4n3C)n2)cc1
→ 58* | 75 | 11 | 6 | 1 | -12
> Fc1ccc(-n2nnc(-c3ccnc4ccccc34)n2)cc1
→ 61* | . | ? | . | 1 | -19
> Fc1ccc(-n2nnc(-c3ccccc3)n2)cc1
→ 1 | 5 | -1 | 7 | -6 | -8
> O=C(C[C@H]1C[C@@H]2c3cc(NC(=O)Nc4ccccc4F)ccc3O[C@@H]2[C@H](CO)O1)NC1CCCCC1
→ 1 | . | . | 1[16.7 µM] | 1 | .
> c1ccc2c(c1)Nc1cc3ccccc3cc1S2
→ . | . | 38* | . | . | .
> C[C@@H]1CN([C@H](C)CO)C(=O)c2cc(C3=CCCC3)cnc2O[C@@H]1CN(C)C(=O)Nc1ccccc1
→ -2 | . | . | 15[16.7 µM] | 2 | 13
> O=C(Oc1ccc(Cl)cc1)N1CCCCC1
→ 50* | . | . | 16 | 0 | -13
> O=C(Oc1ccc(Cl)cc1)N1CCOCC1
→ 16 | 1 | 0 | -3 | -1 | -6
> O=C(Oc1ccc(-c2ccccc2)cc1)N1CCOCC1
→ 62* | 86* | . | -3 | -1 | -9
> CC(=O)N1[C@@H]2c3ccc(-c4ccncc4)c(=O)n3C[C@@H]2[C@@H](CO)[C@@H]1C(=O)NCc1ccccc1Cl
→ -3 | . | . | 6[16.7 µM] | -2 | -7
> CO[C@@H]1CN(C)C(=O)c2cc(NC(=O)Nc3ccccc3)ccc2OC[C@@H](C)N(CC2CC2)C[C@@H]1C
→ 9 | . | . | -7[16.7 µM] | -2 | 8
> CCOC(=O)c1c[nH]n(-c2ccc(C)cc2)c1=O
→ 52* | 15 | 5 | 0 | 4 | -24
> O/N=C/c1ccc(OCc2ccccc2)c(Cl)c1
→ . | 77 | . | . | . | .
> O/N=C/c1ccc(OCc2ccccc2)c(Br)c1
→ . | 73 | 42* | -3 | -3 | -17
> COc1cccc(NC(=O)/C=C/c2ccco2)c1
→ . | 73 | 68* | . | . | .
> O=C(/C=C/c1ccco1)Nc1cccnc1
→ . | 42 | 53* | . | . | .
> COc1ccccc1NC(=O)/C=C\c1ccco1
→ 54* | 31 | 9 | 5 | -6 | -1
> CN1C(=O)c2cc(NC(=O)c3cccs3)ccc2OC[C@H]2O[C@@H](CC(=O)O)CC[C@H]21
→ 0 | . | . | -15[16.7 µM] | -1 | 4
> COc1cccc(S(=O)(=O)N[C@H]2CC[C@H](CC(=O)NCc3ccncc3)O[C@@H]2CO)c1
→ -4 | . | . | -14[16.7 µM] | 0 | -15
> CC(C)NC(=O)N1C[C@H]2[C@@H](c3ccccc31)[C@@H](CO)N2C(=O)c1ccccn1
→ 6 | . | . | -4[16.7 µM] | -3 | -4
> CCS(=O)(=O)N1CCc2nc(-c3ccccc3)sc2C1
→ 13 | 121* | 39* | . | -2 | -18
> Cc1cccc(NC(=O)CN2C(=O)N/C(=C\c3ccc(N4CCOCC4)cc3)C2=O)c1
→ 59* | 15 | 9 | -3 | -7 | -22
> CCOC(=O)c1c(C)c(C(=O)NCCOC)c(C)n1CC
→ 1 | 2 | -1 | -9 | -5 | -3

# (cont.)
# Each structure is followed by: esBAF inh | MITF TRPM1 HTS | Wnt act | miR122 inh | PglD inh | UUG fidelity
> CCOC(=O)c1c(C)c(C(=O)Nc2ccc(N(C)C)cc2)c(C)n1CC
→ 47* | -21 | -3 | 7 | -1 | -2
> Cc1ccc(N=Nc2c(O)n(CN3CCOCC3)c3ccccc23)cc1
→ 54* | . | . | 15 | 3 | -21
> C[C@H](CO)N1C[C@H](C)[C@@H](CN(C)C(=O)CCC(F)(F)F)OCCCC[C@H](C)Oc2ccc(NC(=O)Cc3ccccc3)cc2C1=O
→ 1 | . | . | 2[16.7 µM] | 1 | 8
> Fc1ccc2nc3[nH]c4ccccc4c3nc2c1
→ 35 | . | 100* | 0 | 5 | -4
> O=C(CCl)Oc1ccc2occ(C(=O)c3cccs3)c2c1
→ 93* | 44 | . | -3 | 0 | 10
> CC(=O)Oc1ccc2occ(-c3ccccc3)c2c1
→ 47* | 36 | 6 | . | 3 | -16
> COc1ccc(C(=O)c2coc3ccc(O)cc23)cc1
→ -7 | 73 | 2 | -10 | 0 | -12
> CC(=O)Oc1ccc2occ(C(=O)c3ccccc3)c2c1
→ . | . | 0 | -12 | -2 | -10
> CC(=O)Oc1ccc2occ(C(=O)c3cccs3)c2c1
→ 60* | 56 | 80* | -9 | -4 | -3
> O=C(c1cccc(Br)c1)c1coc2ccc(O)cc12
→ 70* | 90* | -4 | -17 | 3 | 2
> O=C(c1cccs1)c1coc2ccc(O)cc12
→ 67* | 94* | 51* | -2 | 1 | 5
> CCc1sc(C(=O)Nc2nc(-c3ccccn3)cs2)cc1C
→ . | -16 | . | -3 | 5 | -42
> CCc1sc(C(=O)Nc2nccs2)cc1C
→ -1 | 56 | 47* | . | 1 | -51
> CCc1sc(C(=O)Nc2ncccc2C)cc1C
→ 54* | 15 | 1 | 7 | -3 | -14
> CCc1sc(C(=O)Nc2ncccc2O)cc1C
→ -50 | 0 | ? | -1 | -2 | -61
> C=CCOc1ccc(/C(O)=C2/C(=O)C(=O)N(CCCn3ccnc3)C2c2ccco2)cc1 (stereo not drawn)
→ 6 | -9 | -2 | 4 | -1 | -12
> C=CCOc1ccc(/C(O)=C2/C(=O)C(=O)N(CCCn3ccnc3)C2c2cccs2)cc1 (stereo not drawn)
→ 44* | 64 | -2 | -6 | 2 | -19
> O=C(O)c1ccc2oc(SCC(=O)N3CCCCC3)nc2c1
→ 59* | . | . | -16 | . | .
> Cc1cc(C(=O)N2CCc3ccccc3C2)c(C)o1
→ 52* | 29 | -2 | -5 | 3 | 5
> COc1cccc2cc(C(=O)N3CCc4ccccc4C3)c(=O)oc12
→ 78* | 49 | . | 29 | 1 | -13
> Cc1cc(C(=O)N2CCc3ccccc3C2)no1
→ -5 | 14 | 1 | . | -8 | -12
> CCOc1cccc2cc(C(=O)N3CCc4ccccc4C3)c(=O)oc12
→ -2 | -12 | . | -1 | 3 | -14
> O=C([C@@H]1[C@@H](CO)[C@@H]2Cn3c(ccc(-c4cccnc4)c3=O)[C@H]1N2Cc1cccnc1)N1CCOCC1
→ 1 | . | . | 6[16.7 µM] | 5 | -22
> O=C(NCc1ccco1)Nc1ccc(Br)cc1Cl
→ ? | 91* | . | -2 | -6 | -24
> Cc1noc(C)c1NC(=O)N(C)C[C@H]1Oc2ncc(C#CCN(C)C)cc2C(=O)N([C@@H](C)CO)C[C@H]1C
→ -2 | . | . | 34[16.7 µM] | 2 | -7

# MITF TRPM1 HTS: hit marks shown above
# Each structure is followed by: esBAF inh | MITF TRPM1 HTS | Wnt act | miR122 inh | PglD inh | UUG fidelity
> Cc1ccc(-n2nnc(-c3ccnc4ccccc34)n2)cc1
→ 69* | 94* | 40* | -5 | 1 | -15
> O=C(Oc1ccc(-c2ccccc2)cc1)N1CCOCC1
→ 62* | 86* | . | -3 | -1 | -9
> CCS(=O)(=O)N1CCc2nc(-c3ccccc3)sc2C1
→ 13 | 121* | 39* | . | -2 | -18
> O=C(c1cccc(Br)c1)c1coc2ccc(O)cc12
→ 70* | 90* | -4 | -17 | 3 | 2
> O=C(c1cccs1)c1coc2ccc(O)cc12
→ 67* | 94* | 51* | -2 | 1 | 5
> O=C(NCc1ccco1)Nc1ccc(Br)cc1Cl
→ ? | 91* | . | -2 | -6 | -24
